{"source": "patent US4179467A", "about": "“Dopamine hydroxylase inhibiting 2-amino-cyclopent-1-ene-1-thiocarboxylic acid-disulfides” (Richter Gedeon Vegyeszeti Gyar Rt., priority 1976, dated 1979)", "system": "mice", "assay_type": "in vivo", "note": "Where “and” joins values, the source holds several entries; their conditions need not be identical. Equal entries are not always repeated. Where two headings read alike, the source gives them in different places."}
{"substance": "Dopastine", "values": [{"measurement": "LD50", "setting": "i.p.", "value": "250 to 500 mg/kg and 460 mg/kg"}, {"measurement": "LD50", "setting": "p.o.", "value": 750, "unit": "mg/kg"}]}
